Values quoted from earlier work as cited in patent US7229966B2, “Compositions and methods for enhanced mucosal delivery of Y2 receptor-binding peptides and methods for treating and preventing obesity” (Nastech Pharmaceutical Company Inc., priority 2002, dated 2007).

Conditions: rats; intraduodenal; with 1% (w/v) saline dispersion of polycarbophil; cited from earlier work

For “9-desglycinamide, 8-arginine vasopressin [DGAVP]”, the “increase in bioavailability compared to aqueous solution without polymer” value is listed as 3–5 fold.
